Assay results published in ChEMBL document CHEMBL4118168, “Synthesis and structure-activity relationship studies of MI-2 analogues as MALT1 inhibitors” (Bioorg Med Chem, 2018).
Active and inactive are the calls of the source. The calls are words filed in the database; no cut-off is given here.

Target: T1, Mucosa-associated lymphoid tissue lymphoma translocation protein 1 (Homo sapiens) (UniProt Q9UDY8)
T1 sequence (whole entry): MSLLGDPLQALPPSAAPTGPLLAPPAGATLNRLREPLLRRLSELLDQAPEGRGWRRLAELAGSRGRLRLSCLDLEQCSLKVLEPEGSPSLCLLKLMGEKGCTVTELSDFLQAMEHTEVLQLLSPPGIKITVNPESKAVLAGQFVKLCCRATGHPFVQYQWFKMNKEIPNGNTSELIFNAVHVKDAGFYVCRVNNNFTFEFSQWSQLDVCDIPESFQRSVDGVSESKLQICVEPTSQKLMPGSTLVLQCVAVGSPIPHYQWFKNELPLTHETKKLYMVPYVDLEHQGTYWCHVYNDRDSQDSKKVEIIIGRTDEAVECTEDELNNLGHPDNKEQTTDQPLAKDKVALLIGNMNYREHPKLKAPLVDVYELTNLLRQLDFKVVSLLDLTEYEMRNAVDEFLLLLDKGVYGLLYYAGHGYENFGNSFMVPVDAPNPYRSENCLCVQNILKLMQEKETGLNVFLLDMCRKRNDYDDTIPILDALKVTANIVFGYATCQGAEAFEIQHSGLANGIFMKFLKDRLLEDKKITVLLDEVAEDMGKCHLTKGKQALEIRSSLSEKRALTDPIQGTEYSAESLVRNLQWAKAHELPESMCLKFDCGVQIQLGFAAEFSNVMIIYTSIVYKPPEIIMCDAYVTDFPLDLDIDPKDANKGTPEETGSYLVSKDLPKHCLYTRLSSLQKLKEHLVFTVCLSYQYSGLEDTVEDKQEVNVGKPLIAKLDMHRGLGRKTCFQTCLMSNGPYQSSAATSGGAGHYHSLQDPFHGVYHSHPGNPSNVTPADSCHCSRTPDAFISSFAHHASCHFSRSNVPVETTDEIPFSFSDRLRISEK
Assay: Inhibition of MALT1 in PMA/ionomycin-stimulated human Jurkat T cells assessed as reduction in RelB cleavage at 2 uM pretreated for 4 hrs followed by 1 hr incubation with protease inhibitor MG132 and subsequent PMA/ionomycin-stimulation measured after 1 hr by Western blot analysis
Format: cell-based
How it was run: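 Jurkat T cells in RPMI 1640 with 10% FBS, seeded at 9×10^5 cells/well, treated with compound or DMSO for 4 h, then 1 h with MG132 (10 μM), then stimulated with PMA. RelB cleavage as the read-out of MALT1 activity, detected by Western blot.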

inhibition: Active
SMILES: O=C(CCl)Nc1ccc(-n2nc(OCCO)nc2-c2ccc(Cl)c(Cl)c2)cc1
